In US9029370B2, “Substituted benzamide derivatives” (Hoffmann-La Roche Inc., priority 2011, dated 2015) one finds Ki data, which are given here for twelve molecules.

Chains of the proteins cited; added tags and fusions are not shown.
UniProt Q923Y8, whole entry: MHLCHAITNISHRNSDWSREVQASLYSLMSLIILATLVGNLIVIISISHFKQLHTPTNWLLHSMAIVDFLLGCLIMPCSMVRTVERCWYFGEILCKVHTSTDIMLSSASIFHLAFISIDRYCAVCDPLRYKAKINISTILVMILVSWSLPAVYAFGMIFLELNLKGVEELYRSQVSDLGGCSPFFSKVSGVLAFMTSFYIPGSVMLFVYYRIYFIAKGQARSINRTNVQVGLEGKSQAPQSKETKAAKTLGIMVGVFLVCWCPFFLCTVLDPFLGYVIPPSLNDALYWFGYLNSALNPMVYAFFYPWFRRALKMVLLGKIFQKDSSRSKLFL
UniProt Q923Y9, whole entry: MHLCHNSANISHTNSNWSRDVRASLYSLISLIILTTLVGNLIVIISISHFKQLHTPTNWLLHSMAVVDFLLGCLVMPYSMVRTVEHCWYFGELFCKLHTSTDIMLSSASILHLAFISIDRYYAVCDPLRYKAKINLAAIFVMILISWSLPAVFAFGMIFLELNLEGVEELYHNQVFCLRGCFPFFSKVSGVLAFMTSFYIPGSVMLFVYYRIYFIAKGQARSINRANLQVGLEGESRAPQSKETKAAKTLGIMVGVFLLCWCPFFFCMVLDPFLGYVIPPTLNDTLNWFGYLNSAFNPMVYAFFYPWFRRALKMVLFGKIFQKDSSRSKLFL

In the first test the target is mouse TAAR1 (Mus musculus (Mouse), UniProt Q923Y8). In words: Radioligand binding assay on mouse TAAR1. The settings on record: mouse TAAR1, HEK-293 membranes; first value of the pair (before the slash); read-out: Ki (μM) mouse/rat. On the procedure: (§1) For the construction of expression plasmids the coding sequences of human, rat and mouse TAAR 1 were amplified from genomic DNA essentially as described by Lindemann et al.. The Expand High Fidelity PCR System (Roche Diagnostics) was used with 1.5 mM Mg^2+ and purified PCR products were cloned into pCR2.1-TOPO cloning vector (Invitrogen) following the instructions of the manufacturer. PCR products were subcloned into the pIRESneo2 vector (BD Clontech, Palo Alto, Calif.), and expression vectors were sequence verified before introduction in cell lines.
(§2) HEK293 cells (ATCC # CRL-1573) were cultured essentially as described by Lindemann et al. (2005). For the generation of stably transfected cell lines HEK293 cells were transfected with the pIRESneo2 expression plasmids containing the TAAR coding sequences (described above) with Lipofectamine 2000 (Invitrogen) according to the instructions of the manufacturer, and 24 hrs post transfection the culture medium was supplemented with 1 mg/ml G418 (Sigma, Buchs, Switzerland). After a culture period of about 10 d clones were isolated, expanded and tested for responsiveness to trace amines (all compounds purchased from Sigma) with the cAMP Biotrak Enzyme immunoassay (EIA) System (Amersham) following the non-acetylation EIA procedure provided by the manufacturer.
Radioligand Binding Assay on Mouse TAAR1
(§3) Membrane Preparation and Radioligand Binding.
(§4) HEK-293 cells stably expressing mouse TAAR1 were maintained at 37° C. and 5% CO2 in DMEM high glucose medium, containing fetal calf serum (10%, heat inactivated for 30 min at 56° C.), penicillin/streptomycin (1%), and 375 μg/ml geneticin (Gibco). Cells were released from culture flasks using trypsin/EDTA, harvested, washed twice with ice-cold PBS (without Ca^2+ and Mg^2+), pelleted at 1′000 rpm for 5 min at 4° C., frozen and stored at −80° C. Frozen pellets were suspended in 20 ml HEPES-NaOH (20 mM, pH 7.4) containing 10 mM EDTA and homogenized with a Polytron (PT 6000, Kinematica) at 14′000 rpm for 20 s. The homogenate was centrifuged at 48′000×g for 30 min at 4° C. Subsequently, the supernatant was removed and discarded, and the pellet resuspended in 20 ml HEPES-NaOH (20 mM, pH 7.4) containing 0.1 mM EDTA using the Polytron (20 s at 14′000 rpm). This procedure was repeated and the final pellet resuspended in HEPES-NaOH containing 0.1 mM EDTA and homogenized using the Polytron. Typically, aliquots of 2 ml membrane portions were stored at −80° C. With each new membrane batch the dissociation constant (Kd) was determined via a saturation curve. The TAAR1 radioligand ^3[H]-(S)-4-[(ethyl-phenyl-amino)-methyl]-4,5-dihydro-oxazol-2-ylamine (described in WO 2008/098857) was used at a concentration equal to the calculated Kd value, that was usually around 0.7 nM, resulting in the binding of approximately 0.5% of the radioligand and a specific binding representing approximately 70% of the total binding. Nonspecific binding was defined as the amount of ^3[H]-(S)-4-[(ethyl-phenyl-amino)-methyl]-4,5-dihydro-oxazol-2-ylamine bound in the presence of 10 μM unlabeled ligand. All compounds were tested at a broad range of concentrations (10 pM to 10 μM) in duplicates. […] The 96 deep well plates were incubated for 1 hr at 4° C. Incubations were terminated by rapid filtration through Unifilter-96 plates (Packard Instrument Company) and glass filters GF/C (Perkin Elmer) presoaked for 1 hr in polyethylenimine (0.3%) and washed 3 times with 1 ml of cold binding buffer. After addition of 45 μl of Microscint 40 (PerkinElmer) the Unifilter-96 plate was sealed and after 1 hr the ratioactivity counted using a TopCount Microplate Scintillation Counter (Packard Instrument Company).
Consider `O=C(Nc1ccc(Cl)nc1)Nc1ccc(C2CNCCO2)cc1Cl` (racemic) [Example 14, (RS)-1-(2-Chloro-4-morpholin-2-yl-phenyl)-3-(6-chloro-pyridin-3-yl)-urea], for which the Ki was found to be 0.0016 µM. Still for that read-out and setting: the value for `N#Cc1cccc(NC(=O)Nc2ccc(C3CNCCO3)cc2C#N)c1` (racemic) [Example 33, (RS)-1-(2-Cyano-4-morpholin-2-yl-phenyl)-3-(3-cyano-phenyl)-urea] was 2.08 µM. Same read-out and setting: as for `N#Cc1cccc(NC(=O)Nc2ccc([C@@H]3CNCCO3)cc2Cl)c1` [Example 7, (R)-1-(2-Chloro-4-(morpholin-2-yl)phenyl)-3-(3-cyanophenyl)urea], the figure is 0.0015 µM. Turning to `O=C(Nc1ccc(Cl)nc1)Nc1ccc([C@H]2CNCCO2)cc1Cl` [Example 19, (S)-1-(2-Chloro-4-morpholin-2-yl-phenyl)-3-(6-chloro-pyridin-3-yl)-urea], the Ki was 0.0014 µM. Same read-out and setting: as for `O=C(Nc1ccc(Cl)nc1)Nc1ccc([C@@H]2CNCCO2)cc1Cl` [Example 20, (R)-1-(2-Chloro-4-morpholin-2-yl-phenyl)-3-(6-chloro-pyridin-3-yl)-urea], the figure is 0.0012 µM. `O=C(Nc1ccc([C@H]2CNCCO2)cc1Cl)c1cnn(-c2ccc(F)cc2)c1` [Example 31, (S)—N-(2-Chloro-4-(morpholin-2-yl)phenyl)-1-(4-fluorophenyl)-1H-pyrazole-4-carboxamide]: the Ki was 0.0017 µM.

For `O=C(Nc1ccc([C@@H]2CNCCO2)cc1Cl)c1cnn(-c2ccc(F)cc2)c1` [Example 32, (R)—N-(2-Chloro-4-(morpholin-2-yl)phenyl)-1-(4-fluorophenyl)-1H-pyrazole-4-carboxamide], the Ki is 0.0029 µM. Still for that read-out and setting: the value for `O=C(Nc1ccc(Cl)nc1)Nc1ccc([C@H]2CNCCO2)cc1Br` [Example 68, 1-((S)-2-Bromo-4-morpholin-2-yl-phenyl)-3-(6-chloro-pyridin-3-yl)-urea] was 0.001 µM.

The next test concerns the target rat TAAR1 (Rattus norvegicus (Rat), UniProt Q923Y9). Nature of the test: Radioligand binding assay on rat TAAR1. The following applies: rat TAAR1, HEK-293 membranes; second value of the pair (line below); read-out: Ki (μM) mouse/rat. How it is done: as §1, §2
Radioligand Binding Assay on Rat TAAR1
as §3
as §4, with “rat” for “mouse”, “The TAAR1 radioligand ^3[H]-(S)-4-[(ethyl-phenyl-amino)-methyl]-4,5-dihydro-oxazol-2-ylamine (described in WO 2008/098857) was used at a concentration equal to the calculated Kd value, that was usually around 0.7 nM, resulting in the binding of approximately 0.5% of the radioligand and a specific binding representing approximately 70% of the total binding.” left out
As to `O=C(Nc1ccc(C2CNCCO2)cc1Cl)c1cnn(-c2ccc(F)cc2)c1` (racemic) [Example 18, (RS)—N-(2-Chloro-4-(morpholin-2-yl)phenyl)-1-(4-fluorophenyl)-1H-pyrazole-4-carboxamide], the Ki turned out to be 0.0033 µM. Same read-out and setting: the value for `N#Cc1cc(C2CNCCO2)ccc1NC(=O)c1ccn(-c2ccc(F)cc2)n1` (racemic) [Example 28, (RS)—N-(2-Cyano-4-(morpholin-2-yl)phenyl)-1-(4-fluorophenyl)-1H-pyrazole-3-carboxamide] was 0.0059 µM. Turning to `N#Cc1cccc(NC(=O)Nc2ccc([C@H]3CNCCO3)cc2Cl)c1` [Example 6, (S)-1-(2-Chloro-4-(morpholin-2-yl)phenyl)-3-(3-cyanophenyl)urea], the Ki came to 0.0017 µM. As for `N#Cc1cccc(NC(=O)Nc2ccc([C@@H]3CNCCO3)cc2Cl)c1` [Example 7, (R)-1-(2-Chloro-4-(morpholin-2-yl)phenyl)-3-(3-cyanophenyl)urea], the Ki came to 0.0016 µM. Same read-out and setting: as for `O=C(Nc1ccc(Cl)nc1)Nc1ccc([C@@H]2CNCCO2)cc1Br` [Example 67, 1-((R)-2-Bromo-4-morpholin-2-yl-phenyl)-3-(6-chloro-pyridin-3-yl)-urea], the figure is 0.0038 µM; as for `O=C(Nc1ccc(Cl)nc1)Nc1ccc([C@H]2CNCCO2)cc1Br` [Example 68, 1-((S)-2-Bromo-4-morpholin-2-yl-phenyl)-3-(6-chloro-pyridin-3-yl)-urea], 0.0081 µM.
